The source of these data is publication PMC4245888 (Frontiers in Pharmacology, 2014).

The structures appear in SMILES notation.

This data set is described as follows: Pharmacokinetics of ATO in plasma, single-dose three-period crossover study, ATO alone vs ATO–EZE combination. It counts as in vivo, human. To be noted: ATO 80 mg coadministered with EZE 10 mg; bioequivalence-based hypothesis.

Turning to `CC(C)c1c(C(=O)Nc2ccccc2)c(-c2ccccc2)c(-c2ccc(F)cc2)n1CC[C@@H](O)C[C@@H](O)CC(=O)O` [ATO, Atorvastatin], the “pharmacokinetic drug–drug interaction (on ATO)” value is reported as “no relevant pharmacokinetic drug–drug interaction”.
